The values below are quoted from earlier work in US4891377A, “Transdermal delivery of the narcotic analgesics etorphine and analogs” (dated 1990).

Only a part of the results on these compounds is given; other tests are left out.

The conditions of this data set: previously reported.

With `CCC(=O)N(c1ccccc1)C1CCN(CCc2ccccc2)CC1`, the “extent of accumulation in human lungs relative to animals” value was “exceed by far that seen in animals”; the “sequestration in human lungs” value is “sequestered in human lungs and therefore bound to lung tissue”.
